Experiments:
mice [1] = tested on: mice
mice [2] = tested on: mice; remark: listed apart in the source
mice [3] = conditions: chronic, daily 0.5 mg/kg i.p.; tendency, significant only in week 4 in response to 10 mg/kg
[4] = tested on: mice midbrain and brainstem
[5] = chronic, daily 0.5 mg/kg i.p., 4 weeks
[6] = tested on: DA secretion by PC12 cells; conditions: 10 μM, 24 h incubation, 10 min 59 mM K+
mice [7] = tested on: mice; remark: listed apart in the source
[8] = chronic, daily 0.5 mg/kg i.p., 4 weeks
[9] = acute, 10 mg/kg, 1 h after treatment

SMILES: c1ccc(CN2CCCC[C@H]3NCC[C@H]32)cc1 [(R,R)-1a, (3aR,8aR)-4-Benzyldecahydropyrrolo[3,2-b]azepine]
- mobility in the light/dark box task (mice [1]; acute, 1.0 or 10 mg/kg i.p.): dramatically decreased mobility
- behavior in the light/dark box assay, treated versus control (mice [1]; chronic, daily 0.5 mg/kg i.p.): no significant difference in behavior
- motor coordination (Rotarod task) (mice [2]; acute, 1.0 or 10 mg/kg i.p.): severe deficits in motor coordination
- motor coordination (Rotarod) (mice [2]; [8]): only slightly affected in week 1
- mobility in the tail suspension test compared to controls (mice [3]): increased mobility
- NE, 5-HT and adenosine levels in the midbrain and 5-HT levels in the brainstem [4, 9]: significantly decreased
- other neurotransmitters (DA, γ-aminobutyric acid, acetylcholine, glutamate, glycine) [4, 9]: not affected
- neurotransmitter levels in the midbrain and brainstem ([4]; chronic exposure): did not yield significant changes
- Glycine Ion Channel (5 µM) (Glycine Ion Channel): 28.3
- Glutamate Ion Channel (5 µM) (Glutamate Ion Channel): 7.5
- body weight between treated and control mice at the end of the study period [5]: lack of decrease
- vesicular secretion of monoamines (DA) induced by 59 mM K+ [6]: did not affect
- core body temperature (mice [7]; acute, 1.0 or 10 mg/kg i.p.): significant decrease
- body temperature upon weekly inspection (mice [7]; [8]): unchanged

Source: publication PMC12067442 (Journal of Medicinal Chemistry, 2025)
